Columns and labels:
PAN02-luc cells = assay: Liver metastasis model of pancreatic cancer (PAN02)
[1] = tested on: other STAT family proteins; assay: MST binding to other STAT family proteins
Excerpt: (§1) STAT1 (amino acid residues 127–716), STAT2 (amino acid residues 138–702), STAT3 (amino acid residues 127–722), STAT4 (amino acid residues 133–705), STAT5B (amino acid residues 136–703) and STAT6 (amino acid residues 113–658) were cloned into the pET28A vector. STAT3-SH2 (amino acid residues 586–685) and the mutants of the STAT3-SH2 produced by site-directed mutagenesis were also cloned into the pET28A vector. All recombinant human fusion proteins were expressed in E. coli BL21 (DE3). Then, according to different induction conditions, the protein expression was induced. During the induction of the expression of STAT3-SH2 and all the mutants, STAT1, STAT2, STAT3 and STAT6, when the OD value reached about 0.6–1.0, the E. coli was transferred to 22 °C and 0.5 mM Isopropyl β-D-1-thiogalactopyranoside (IPTG) was added. For the expression of STAT4 and STAT5B when the OD value reached about 0.5–0.6, the E. coli was transferred to 30 °C for 2.5–3 h and 0.2 mM IPTG was added.
(§2) Microscale thermophoresis (MST) was conducted as previously described.[28] Binding affinities of YY002, Stattic against purified STAT3^127–722 and STAT3-SH2 protein or YY002 against STAT3-SH2 WT and mutants were measured by a Monolith NT.115 (Nanotemper Technologies). […] The samples were then loaded into premium capillaries (NanoTemper Technologies) and measured at 25 °C using 20%–40% LED power and medium MST power. […]

The chains behind the UniProt entries cited, without tags or fusion partners. Residues count along the entry.
UniProt P40763, 586-685 K626A limits assumed: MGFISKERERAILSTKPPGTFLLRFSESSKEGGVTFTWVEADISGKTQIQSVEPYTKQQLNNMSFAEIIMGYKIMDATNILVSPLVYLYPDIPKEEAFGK
UniProt P40763, 586-685 N647A limits assumed: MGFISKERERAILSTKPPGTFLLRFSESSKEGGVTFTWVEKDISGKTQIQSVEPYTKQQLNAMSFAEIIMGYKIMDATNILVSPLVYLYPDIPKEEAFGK
UniProt P11712, whole entry: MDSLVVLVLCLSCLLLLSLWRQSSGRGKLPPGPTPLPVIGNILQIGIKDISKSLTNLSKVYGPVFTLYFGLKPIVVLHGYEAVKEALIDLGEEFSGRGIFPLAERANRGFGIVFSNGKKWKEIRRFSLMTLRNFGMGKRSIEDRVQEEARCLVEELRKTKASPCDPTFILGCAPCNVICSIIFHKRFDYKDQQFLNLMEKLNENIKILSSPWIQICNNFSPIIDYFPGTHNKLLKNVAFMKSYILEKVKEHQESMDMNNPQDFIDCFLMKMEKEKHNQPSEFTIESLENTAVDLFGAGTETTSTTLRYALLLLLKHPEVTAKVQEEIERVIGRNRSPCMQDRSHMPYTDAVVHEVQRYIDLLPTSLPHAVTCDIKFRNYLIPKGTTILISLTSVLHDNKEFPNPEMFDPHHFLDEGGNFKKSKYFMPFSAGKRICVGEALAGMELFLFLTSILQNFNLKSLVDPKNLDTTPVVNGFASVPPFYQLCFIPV
UniProt P05177, whole entry: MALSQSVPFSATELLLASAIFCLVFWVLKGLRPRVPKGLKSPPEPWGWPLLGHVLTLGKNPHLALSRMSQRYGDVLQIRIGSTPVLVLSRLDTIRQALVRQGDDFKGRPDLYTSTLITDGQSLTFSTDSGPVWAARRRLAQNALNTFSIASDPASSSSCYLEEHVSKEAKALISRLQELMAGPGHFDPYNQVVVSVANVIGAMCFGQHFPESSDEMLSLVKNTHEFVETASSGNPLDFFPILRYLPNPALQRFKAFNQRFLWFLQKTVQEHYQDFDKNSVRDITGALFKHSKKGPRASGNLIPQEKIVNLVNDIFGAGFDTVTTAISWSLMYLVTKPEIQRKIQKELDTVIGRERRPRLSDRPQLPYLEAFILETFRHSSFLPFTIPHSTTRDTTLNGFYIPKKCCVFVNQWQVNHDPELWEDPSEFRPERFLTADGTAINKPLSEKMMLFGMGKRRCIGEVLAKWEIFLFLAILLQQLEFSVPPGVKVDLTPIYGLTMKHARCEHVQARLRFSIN

PC3, KG1, HUVEC and HAF = assay: Cell viability (MTS), low p-STAT3 cell lines; conditions: low level of p-STAT3 cell lines, 72 h
Method: acute myeloid leukemia cell line (KG1), human atrial fibroblast (HAF), human […]
umbilical vein endothelial cell line (HUVEC), human embryonic kidney cell line […]
(HEK293T) was purchased from Cell Bank/Stem Cell Bank of the Chinese Academy […]
of Sciences and American Type Culture Collection (ATCC). Capan-2, PANC-1 and […]
HEK293T were cultured in Dulbecco’s Modified Eagle’s Medium (DMEM) supplemented with 10% fetal bovine serum (FBS) and 1% penicillin-streptomycin, and […]
additional 2.5% horse serum was added in the medium of MIA PaCa-2; AsPC-1, BxPC- […]
3, PC3 and KG1 were cultured in RPMI 1640 medium supplemented with 10%-20% […]
FBS and 1% penicillin-streptomycin; HPAC was cultured in Dulbecco's Modified […]
Eagle Medium/Nutrient Mixture F-12 medium (DMEM/F-12), SW1990 was cultured […]
in Leibovitz's L-15 Medium, CFPAC-1 was cultured in Iscove's Modified Dulbecco's […]
Medium. HUVEC was cultured in Ham's F-12K supplemented with 0.1mg/mL Heparin, […]
0.03-0.05mg/mL ECGs, 10% FBS and 1% penicillin-streptomycin. HAF was cultured […]
in Fibroblast Medium supplemented with 10% FBS, 1% Fibroblast Growth Supplement […]
(FGS) and 1% penicillin-streptomycin.
Cell viability was measured by MTS assay following the manufacturer ’s instructions.
Briefly, cancer cells or normal cells were seeded in 96-well plates at appropriate […]

STAT3-SH2D mutant K626A = STAT3-SH2D mutant K626A (Homo sapiens, UniProt P40763, K626A); assay: MST binding to STAT3-SH2 mutant K626A
Excerpt: as §1, §2

CYP2C9 = CYP2C9 (Homo sapiens, UniProt P11712); assay: CYP2C9 inhibition; conditions: safety profiling
OXPHOS = assay: Oxygen consumption rate (OXPHOS), Seahorse; conditions: BxPC-3, CFPAC-1 and Capan-2 cells
SH2-N647A = SH2-N647A (Homo sapiens, UniProt P40763, N647A); assay: MST binding to STAT3-SH2 mutant N647A
Excerpt: as §1, §2

[2] = tested on: mitochondrial membrane potential; assay: Mitochondrial membrane potential assay (JC-1); conditions: PANC-1 cells
Method: Luciferase reporter assay
The HEK293T cells were seeded in 24-well plates, The 500 ng STAT3 luciferase […]
mutation plasmids and 10 ng Renilla plasmids were co-transfection into each well of
plates with Lipofectamine 2000 reagent (Invitrogen) and incubated for 20-24 h. Then,
the cells were added with IL-6 (20 ng/mL). Luciferase assays were performed by using
the Dual Luciferase Reporter Assay System (Promega) according to manufacturer’s
instructions. The firefly luciferase activities were normalized against Renilla luciferase
Mitochondrial membrane potential assay
Mitochondrial membrane potential was assessed following the manufacturer's
instructions (Beyotime, C2006). Briefly, the cells were seeded in 6-well plates, YY002
treated for 24h. Then the cells were washed with PBS and incubated with JC‐1 probe
in 1× dye working buffer for 20 min at 37°C. After washing with cleaning buffer,
JC‐1 monomers and JC‐1 aggregates were detected with Flow cytometry to indicate
mitochondrial membrane potential.
Reactive Oxygen Species (ROS) Assay
ROS assay was performed following the manufacturer's instructions (Beyotime,
S0033S). Briefly, the pancreatic cancer cells were seeded in 6-well plates, YY002
treated for 20h. Then the cells were wash with cold PBS for three times. Dilute 2',7'-
Dichlorodihydrofluorescein diacetate (DCFH-DA) with serum-free culture medium at […]

CYP1A2 = CYP1A2 (Homo sapiens, UniProt P05177)
glycolysis = assay: Glycolysis (ECAR), Seahorse; conditions: BxPC-3 and CFPAC-1 cells
[3] = Liver microsome stability, monkey

## Cn1c(C(=O)N2CCN(Cc3ccc(OCC(F)(F)F)cc3)CC2)cc2ccc(Oc3cnc(-c4nc(-c5ccc(C(F)(F)F)cc5)no4)cn3)cc21
PAN02-luc cells; independent experiment
  Survival of tumor-bearing mice: significantly prolonged the survival
PAN02-luc cells; mouse, in vivo
  Tumor signal (bioluminescence): significantly inhibited tumor signal
[1]
  Binding to other STAT family proteins: no significant binding affinities
PC3, KG1, HUVEC and HAF
  Sensitivity of proliferation: relative insensitive
STAT3-SH2D mutant K626A
  Binding affinity compared with SH2D-WT: only modestly changed
CYP2C9
  IC50: > 25 µM
OXPHOS
  OXPHOS in pancreatic cancer cells: suppressed OXPHOS in pancreatic cancer cells in a concentration-dependent manner
SH2-N647A
  Binding affinities (nM): did not bind
[2]
  Mitochondrial membrane potential (MMP): drastically affected
CYP1A2
  IC50: > 25 µM
Plasma stability, human
  Plasma t1/2: > 2 h
glycolysis
  Glycolysis (ECAR): no significant impact on glycolysis
Plasma stability, mouse
  Plasma t1/2: > 2 h
[3]
  Liver Microsomes t1/2: > 2 h
